{"sequences": {"note": "Sequences of proteins named here, by UniProt entry; tags and fusion partners are left off.", "UniProt P11308, whole entry": "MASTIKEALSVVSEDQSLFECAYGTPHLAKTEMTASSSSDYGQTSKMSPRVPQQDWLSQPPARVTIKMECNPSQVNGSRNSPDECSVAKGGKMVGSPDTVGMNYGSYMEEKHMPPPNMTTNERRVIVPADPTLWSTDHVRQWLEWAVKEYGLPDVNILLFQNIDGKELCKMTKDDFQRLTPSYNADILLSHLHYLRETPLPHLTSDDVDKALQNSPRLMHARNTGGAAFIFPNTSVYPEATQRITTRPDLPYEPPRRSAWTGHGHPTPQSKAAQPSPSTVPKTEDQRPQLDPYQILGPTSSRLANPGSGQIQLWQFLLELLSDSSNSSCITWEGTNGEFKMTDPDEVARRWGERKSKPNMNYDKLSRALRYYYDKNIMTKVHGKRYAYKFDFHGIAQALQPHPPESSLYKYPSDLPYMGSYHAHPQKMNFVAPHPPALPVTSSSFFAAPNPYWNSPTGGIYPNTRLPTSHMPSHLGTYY"}, "source": "PubChem BioAssay AID624246", "about": "(National Center for Advancing Translational Sciences (NCATS), 2012)", "note": "“And” between values parts separate entries of the source, which are not always exact repeats. Identical values can stand only once. The entries are a selection whose mix differs from that of the whole data set. Some tests of the compounds listed are not included; inactive here does not mean inactive elsewhere. The source made the active and inactive calls. Calls come from the whole dose curve; as a rule, active = well fitted inhibition curve with a large enough effect in the polarisation, with a control signal flat; inconclusive = small, poorly fitted or top-dose-only effect, or effect the other way, or a change in a side signal; inactive = no such curve, though single readings can be large or run the other way; the % refers to the polarisation."}
{"target": "Transcriptional regulator ERG (Homo sapiens) (UniProt P11308)", "test": "qHTS for Small Molecule Inhibitors of the ERG Ets/DNA interaction; note: % of control where 0% means no effect", "details": "fluorescence polarization, His-ERG Ets domain / labelled DNA; at 76.9 µM (top of the series)", "text": "The Ets family of proteins is a family of ~30 conserved transcription factors defined by the presence of an ~85 amino acid domain referred to as the Ets domain, which mediates sequence-specific DNA binding to a core DNA element GGAA/T.The Ets family member ERG has been linked to several neoplasms. […] More extensive studies of the effects of over-expression of ERG in prostate cells have recently been carried out and have shown that over-expression of ERG results in increased invasion. […] We will carry out a high throughout screen to identify inhibitors of the interaction between ERG and DNA using a fluorescence polarization (FP) assay with a His-tagged ERG Ets domain and fluorescently-labeled DNA probes to develop small molecule inhibitors of this interaction as probes to test this hypothesis and lay the groundwork for the development of targeted therapies against ERG. NIH Molecular Libraries Probe Production Network [MLPCN] NIH Chemical Genomics Center [NCGC] Grant: NS066464 PI Name: John Bushweller, University of Virgina\n1.5 ul of protein solution (1 uM ERG domain in 300mM KCl, 50mM Tris-HCl, 1mM EDTA, 1mM DTT, pH 7.5); 20 nl Control plate and compound library plate; 1.5 ul mixture of 5 nM Fluorescein-DNA and 100nM Texas-615-DNA solution in same buffer as above solution; measure fluorescence polarization sequentially for fluorescein (Excitation = 480 nm, Emission = 535s, 535p nm) and Texas red (Excitation = 555 nm, Emission = 632s, 632p nm)."}
{"smiles": "O=C(NCC1(N2CCCCC2)CCCCC1)c1cccc(Cl)c1", "FP activity, negative = inhibition": "inactive: -8.24%"}
{"smiles": "COc1ccc(C(=O)NCC2(N(C)C)CCCCC2)cc1Cl", "FP activity, negative = inhibition": "inactive: -10.9%"}
{"smiles": "COc1cccc(C(=O)NCC2(N3CCCCC3)CCCCC2)c1", "FP activity, negative = inhibition": "inactive: 6.88%"}
{"smiles": "COc1ccc(Cl)cc1C(=O)NCC1(N(C)C)CCCCC1", "FP activity, negative = inhibition": "inactive: 8.56%"}
{"smiles": "COc1cc(C(=O)NCC2(N(C)C)CCCCC2)c([N+](=O)[O-])cc1OC", "FP activity, negative = inhibition": "inactive: 1.55%"}
{"smiles": "CN(C)C1(CNC(=O)c2ccc(Br)cc2)CCCCC1", "FP activity, negative = inhibition": "inactive: 7.3%"}
{"smiles": "CN(C)c1cccc(C(=O)NCC2(N(C)C)CCCCC2)c1", "FP activity, negative = inhibition": "inactive: -0.293%"}
{"smiles": "CC(C)Oc1ccc(C(=O)NCC2(N(C)C)CCCCC2)cc1", "FP activity, negative = inhibition": "inactive: -5.51% and inactive: 23.2%"}
{"smiles": "O=C(OCCN1CCCC1)C(O)(c1ccccc1)c1ccccc1", "FP activity, negative = inhibition": "inactive: 2.14%"}
{"smiles": "Cc1cccc(C(=O)NCC2(N(C)C)CCCCC2)c1", "FP activity, negative = inhibition": "inactive: -4.7%"}
{"smiles": "COc1cc(C(=O)NCC2(N(C)C)CCCCC2)cc(OC)c1OC", "FP activity, negative = inhibition": "inactive: -3.77%"}
{"smiles": "COc1ccc(Br)c(C(=O)NCC2(N3CCCCC3)CCCCC2)c1", "FP activity, negative = inhibition": "inactive: 1.77%"}
{"smiles": "CC(C)COc1ccc(C(=O)NCC2(N(C)C)CCCCC2)cc1", "FP activity, negative = inhibition": "inactive: 0.168%"}
{"smiles": "O=C(OC1CN2CCC1CC2)C(CO)(c1ccccc1)c1ccccc1", "note": "(stereo not given)", "FP activity, negative = inhibition": "inactive: -2.47%"}
{"smiles": "COc1cccc(C(=O)NCC2(N3CCOCC3)CCCCC2)c1", "FP activity, negative = inhibition": "inactive: 1.9%"}
{"smiles": "CN(C)C1(CNC(=O)c2ccccc2F)CCCCC1", "FP activity, negative = inhibition": "inactive: 1.19%"}
{"smiles": "Cc1ccc(C(=O)NCC2(N3CCCCC3)CCCCC2)cc1", "FP activity, negative = inhibition": "inactive: 4.78%"}
{"smiles": "CC(C)N1C(=O)CC2(CCN(CCOC(=O)C(O)(c3ccccc3)c3ccccc3)CC2)C1=O", "FP activity, negative = inhibition": "inactive: 0.752%"}
{"smiles": "CCN(CC)CC(C)C(C)OC(=O)C(O)(c1ccccc1)c1ccccc1", "note": "(stereo not given)", "FP activity, negative = inhibition": "inactive: 0.231%"}
{"smiles": "CN(C)C1(CNC(=O)c2cccc(Cl)c2)CCCCC1", "FP activity, negative = inhibition": "inactive: -30.3%"}
{"smiles": "COc1cc(SC)ccc1C(=O)NCC1(N(C)C)CCCCC1", "FP activity, negative = inhibition": "inactive: -11.4%"}
{"smiles": "CN1[C@@H]2CC[C@H]1CC(OC(=O)C(O)(c1ccccc1)c1ccccc1)C2", "note": "(stereo not given in full)", "FP activity, negative = inhibition": "inactive: -5.02%"}
{"smiles": "O=C(NCC1(N2CCCCC2)CCCCC1)c1cc([N+](=O)[O-])ccc1Cl", "FP activity, negative = inhibition": "inactive: -7.14%"}
{"smiles": "Cc1cc(C(=O)NCC2(N3CCCCC3)CCCCC2)ccc1[N+](=O)[O-]", "FP activity, negative = inhibition": "inactive: 10.3%"}
{"smiles": "CCN1CCCC(OC(=O)C2(O)c3ccccc3C=Cc3ccccc32)C1", "note": "(stereo not given)", "FP activity, negative = inhibition": "inactive: -2.01%"}
{"smiles": "O=C(NCC1(N2CCCCC2)CCCCC1)c1cccc(Br)c1", "FP activity, negative = inhibition": "inactive: -14.3%"}
{"smiles": "COc1ccc(C(=O)NCC2(N(C)C)CCCCC2)cc1", "FP activity, negative = inhibition": "inactive: -11.8%"}
{"smiles": "CCOc1cccc(C(=O)NCC2(N(C)C)CCCCC2)c1", "FP activity, negative = inhibition": "inactive: -2.38%"}
{"smiles": "C=CCN1CCN(CCOC(=O)C(O)(c2ccccc2)c2ccccc2)CC1", "FP activity, negative = inhibition": "inactive: -8.87%"}
{"smiles": "O=C(NCC1(N2CCCCC2)CCCCC1)c1cc(F)c(F)cc1Cl", "FP activity, negative = inhibition": "inactive: 4.53%"}
{"smiles": "CCCCOc1ccccc1C(=O)NCC1(N(C)C)CCCCC1", "FP activity, negative = inhibition": "inactive: 0.638%"}
{"smiles": "CN(C)C1(CNC(=O)c2ccccc2[N+](=O)[O-])CCCCC1", "FP activity, negative = inhibition": "inactive: 4.2%"}
{"smiles": "Cc1ccccc1C(=O)NCC1(N2CCCCC2)CCCCC1", "FP activity, negative = inhibition": "inactive: 8.37%"}
{"smiles": "CN(C)C1CCCC1OC(=O)C(O)(c1ccccc1)c1ccccc1", "note": "(stereo not given)", "FP activity, negative = inhibition": "inactive: -2.92%"}
{"smiles": "CN(C)c1ccc(C(=O)NCC2(N(C)C)CCCCC2)cc1", "FP activity, negative = inhibition": "inactive: 2.94%"}
